Values quoted from earlier work in PMC8773819.

Assays:
[1] = biological target: α-synuclein 125-140 (Homo sapiens) (UniProt P37840)
[2] = biological target: β-synuclein (Homo sapiens) (UniProt Q16143)

For “α-synuclein N-terminal region (from UniProt P37840)”, the Kd [1] is listed as 500 µM.
For α-synuclein (from UniProt P37840), the Kd [2] is given as 100 µM.
